In PMC3786144 (Biochimica et biophysica acta, 2013):

Columns and labels:
[1] = system: Id1; experiment: Id1 mRNA expression by qPCR in NIH3T3 cells; type: cell-based, mouse; settings: serum-starved NIH3T3, 20 ng/ml BMP2 vs 20% serum
[2] = system: phospho-Smad1/5/8; experiment: Phospho-Smad1/5/8 immunoblot in NIH3T3 cells; type: cell-based, mouse; settings: starved NIH3T3, 20 ng/ml BMP2 for 1 hour

B1: BMP2: recombinant human BMP2 (Sino Biological Inc.) (protein, UniProt P12643 283-396, looked up)
Bone morphogenetic protein 2: QAKHKQRKRLKSSCKRHPLYVDFSDVGWNDWIVAPPGYHAFYCHGECPFPLADHLNSTNHAIVQTLVNSVNSKIPKACCVPTELSAISMLYLDENEKVVLKNYQDMVVEGCGCR
With B1 the “induction of Id1 expression compared with serum” value [1] was “about twice as strongly as serum” and the “phosphorylation of Smad1/5/8” value [2] was “induced the phosphorylation”.
